The text below walks through data of patent US20170340698A1, “CYCLIC PEPTIDE SPECIFICALLY BINDING TO APOPTOTIC CELLS AND USE THEREOF” (KYUNGPOOK NATIONAL UNIVERSITY INDUSTRY-ACADEMIC COOPERATION …, priority 2014, published 2017).

The test system of this assay is SNU-16 stomach tumor xenografts. The assay can be described thus: Anti-tumor treatment of mice: tumor volume, tumor weight, TUNEL staining. The format is in vivo. To be noted: cisplatin 5 mg/kg i.p. once per week, cetuximab 1.5 mg/kg i.p. twice per week, two weeks; measured over three weeks. As to the method:
Eight-week old female athymic (nu/nu) Balb/c mice were purchased from Orient laboratories (Seongnam, Korea) and were housed under specific-pathogen-free (SPF) conditions with laboratory chow and water ad libitum. Stomach tumor xenografts were established by subcutaneously injecting 1×10^7 SNU-16 cells in 100 ml saline into the right flank. Tumors were allowed to reach 50-60 mm^3 of volume before randomization and initiation of treatment. […] Changes in tumor size were measured using an automatic caliper over three weeks. Tumor volumes were calculated using the formula: volume=(length×width×height)/2. Tumor weights were measured after isolation of tumor mass.
After in vivo imaging, mice were euthanized three weeks after the initiation of anticancer drug treatment, and the tumors were removed and frozen quickly in O.C.T. embedding medium (Sakura Finetechnical, Tokyo, Japan). […] The stained tissue sections were observed under a fluorescence microscope (Carl Zeiss, Jena, Germany).
To examine anti-tumor growth effect by cisplatin or cetuximab alone and in combination, tumor volumes and weights after the drug treatment were measured.

“cetuximab: anti-epidermal growth factor receptor antibody”: the “tumor volume compared with control group treated without drug” value was “reduced tumor volumes”.
